Consider one substance from US9063123B2, “Transgenic mice expressing human toll-like receptor 8” (Dynavax Technologies Corporation, priority 2011, dated 2015).

The target of experiment [1] is T1, human TLR8 (hTLR8Tg mice) (Homo sapiens, UniProt Q9NR97).
T1 construct: the human BAC carrying TLR8 gene was obtained from the RPCIB-753 BAC library; expressed in transfected cells; host or cells: Blood cells, bone marrow cells and PBMC of hTLR8 transgenic mice, and the whole animals; The mice came from C57BL/6NTac ES cells transfected with the BAC: the Clone 8 germline line and chimeras
T1 sequence (Q9NR97 27-1041): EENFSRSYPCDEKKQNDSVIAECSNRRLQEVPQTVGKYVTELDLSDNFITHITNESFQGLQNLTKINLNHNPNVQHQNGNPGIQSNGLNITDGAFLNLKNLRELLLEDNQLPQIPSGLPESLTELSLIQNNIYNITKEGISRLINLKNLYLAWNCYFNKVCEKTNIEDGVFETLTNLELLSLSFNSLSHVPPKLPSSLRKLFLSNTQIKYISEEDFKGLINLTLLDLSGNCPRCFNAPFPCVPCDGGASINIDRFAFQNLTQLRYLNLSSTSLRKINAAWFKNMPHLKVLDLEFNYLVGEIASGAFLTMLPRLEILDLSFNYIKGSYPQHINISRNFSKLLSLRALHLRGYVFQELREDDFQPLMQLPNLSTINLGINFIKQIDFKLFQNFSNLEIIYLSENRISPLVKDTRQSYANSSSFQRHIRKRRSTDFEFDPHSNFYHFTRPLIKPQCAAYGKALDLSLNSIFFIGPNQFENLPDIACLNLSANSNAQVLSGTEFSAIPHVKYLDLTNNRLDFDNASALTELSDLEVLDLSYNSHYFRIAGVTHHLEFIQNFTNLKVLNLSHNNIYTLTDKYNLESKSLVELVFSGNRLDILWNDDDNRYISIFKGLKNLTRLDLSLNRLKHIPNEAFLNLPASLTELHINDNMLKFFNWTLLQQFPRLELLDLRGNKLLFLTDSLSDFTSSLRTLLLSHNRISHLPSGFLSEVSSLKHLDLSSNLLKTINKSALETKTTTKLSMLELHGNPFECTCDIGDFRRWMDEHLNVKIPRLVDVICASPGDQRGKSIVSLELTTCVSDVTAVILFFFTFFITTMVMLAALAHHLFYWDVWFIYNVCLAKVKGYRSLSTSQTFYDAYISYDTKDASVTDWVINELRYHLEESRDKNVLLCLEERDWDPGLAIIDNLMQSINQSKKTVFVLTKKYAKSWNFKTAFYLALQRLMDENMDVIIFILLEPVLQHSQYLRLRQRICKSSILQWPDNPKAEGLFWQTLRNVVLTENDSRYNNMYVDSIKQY
As to the kind of experiment: Serum IL-12 after intravenous TLR8 agonist in TLR8Tg Clone 8 mice. It counts as in vivo. To be noted: serum 6 hr later, ORN8-L 300 μg, CL075 5 μg.

The test system of experiment [2] is wild-type mice. As to the kind of experiment: Serum IL-12 after intravenous TLR8 agonist in wild-type mice. It counts as in vivo, mouse. The note with it: wild-type mice injected intravenously.

“Also recorded” adds a separate entry of the source.

As for CL075, in experiment [1], the “secretion of IL-12 in vivo (serum) in hTLR8Tg mice” value is listed as “induced secretion; also recorded: elevated levels of IL-12”. Further, the “IL-12 in the serum of wild-type mice” value in experiment [2] is on record as “not from wild-type mice”.
